According to PubChem BioAssay AID1214 (Sanford-Burnham Center for Chemical Genomics, 2008):
Only a part is listed here, and it is no random draw. Some of these compounds have results that are not shown, active ones among them. Calls of active or inactive are those of the source.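 How the source made its calls: active means activation factor of 2 or more at 20 µM, relative to plate controls; inactive means the rest.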

By UniProt entry, the sequences of proteins in these tests, tags left out.
UniProt P34949, whole entry: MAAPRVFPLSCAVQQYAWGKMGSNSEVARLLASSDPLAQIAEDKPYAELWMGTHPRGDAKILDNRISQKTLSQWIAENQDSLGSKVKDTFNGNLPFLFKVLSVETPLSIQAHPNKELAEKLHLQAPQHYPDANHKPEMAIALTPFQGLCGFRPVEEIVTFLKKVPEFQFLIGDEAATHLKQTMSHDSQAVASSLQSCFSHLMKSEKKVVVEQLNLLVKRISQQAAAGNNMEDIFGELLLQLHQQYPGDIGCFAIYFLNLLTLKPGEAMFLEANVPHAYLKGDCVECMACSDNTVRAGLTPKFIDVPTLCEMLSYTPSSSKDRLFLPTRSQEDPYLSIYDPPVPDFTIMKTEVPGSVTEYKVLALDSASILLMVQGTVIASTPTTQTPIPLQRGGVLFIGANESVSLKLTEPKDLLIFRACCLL

The compounds below were run against Mannose-6-phosphate isomerase (Homo sapiens) (UniProt P34949) (assay: activators of human PMI, primary screen, biochemical, fluorescence intensity, near-Km mannose 6-phosphate (AID 1214)). Conditions: purified human PMI, coupled resazurin fluorescence, 20 min, at 20 µM; stronger effect = higher value, 1 = vehicle control, 0 substrate-free wells.
With `Cc1ccccc1C(=O)NCC1(N2CCCCC2)CCCCC1` the activation factor was “inactive”.
In the case of `CN(C)C1CCCC1OC(=O)C(O)(c1ccccc1)c1ccccc1` (centres undefined), the activation factor was “inactive”.
With `CCN1CCCC(OC(=O)C2(O)c3ccccc3C=Cc3ccccc32)C1` (centres undefined) the activation factor was “inactive”.
For `C=CCN1CCN(CCOC(=O)C(O)(c2ccccc2)c2ccccc2)CC1`, the activation factor was inactive: 1.2.
For `O=C(NCC1(N2CCCCC2)CCCCC1)c1cc([N+](=O)[O-])ccc1Cl`, the activation factor was inactive: 1.1.
For `CC(C)N1C(=O)CC2(CCN(CCOC(=O)C(O)(c3ccccc3)c3ccccc3)CC2)C1=O`, the activation factor was “inactive”.
`O=C(OC1CN2CCC1CC2)C(CO)(c1ccccc1)c1ccccc1` (centres undefined) was tested, and the activation factor was “inactive”.
`CN(C)c1cccc(C(=O)NCC2(N(C)C)CCCCC2)c1` was tested, and the activation factor was inactive: 0.9.
With `COc1cccc(C(=O)NCC2(N3CCCCC3)CCCCC2)c1` the activation factor was inactive: 0.9.
